Permeability data for macrocyclic peptides

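Lipid, pH, incubation time, direction and concentration are not recorded in the data file. The list need not hold all peptides of the study. Entries at the database's floor value (log10 P of -10) are not listed.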

PAMPA measures passive passage through an artificial lipid membrane.
Values are log10 P with P in cm/s, so -5 is more permeable than -7.

The entry for CC(C)C[C@H]1NC(=O)[C@@H]2CCCN2C(=O)CN(Cc2ccccc2)C(=O)[C@@H](CC(C)C)NC(=O)[C@H](C)N(C)C(=O)[C@H]2CCCN2C(=O)[C@H](Cc2ccccc2)NC1=O lists PAMPA -5.97 (log10 cm/s).
The entry for CC(C)C[C@@H]1C(=O)N(Cc2ccccc2)CC(=O)N2CCC[C@H]2C(=O)N[C@H](CC(C)C)C(=O)N[C@@H](Cc2ccccc2)C(=O)N2CCC[C@H]2C(=O)N(C)[C@@H](C)C(=O)N1C lists PAMPA -6.36 (log10 cm/s).
The entry for CC(C)C[C@H]1NC(=O)[C@H]2CCCN2C(=O)C[C@H](Cc2ccccc2)NC(=O)[C@H](CC(C)C)N(C)C(=O)[C@H](C)N(C)C(=O)[C@H](Cc2ccccc2)NC1=O lists PAMPA -5.60 (log10 cm/s).
The entry for CC(C)C[C@@H]1NC(=O)[C@H](CC(C)C)N(C)C(=O)[C@@H](C)NC(=O)[C@H](Cc2ccccc2)NC(=O)[C@@H](CC(C)C)N(C)C(=O)[C@H]2CCCN2C1=O lists PAMPA -4.88 (log10 cm/s).
The entry for CC(C)C[C@@H]1NC(=O)[C@@H](C)NC(=O)[C@H]2CCCN2C(=O)[C@H](Cc2ccccc2)NC(=O)[C@H](CC(C)C)N(C)C(=O)[C@@H]2CCCN2C(=O)[C@H](CC(C)C)N(C)C1=O lists PAMPA -5.58 (log10 cm/s).
The entry for CC(C)C[C@@H]1NC(=O)[C@H](C)NC(=O)[C@H]2CCCN2C(=O)[C@H](Cc2ccccc2)NC(=O)[C@H](CC(C)C)N(C)C(=O)[C@H]2CCCN2C(=O)[C@@H](CC(C)C)N(C)C1=O lists PAMPA -6.24 (log10 cm/s).
The entry for CC(C)C[C@@H]1NC(=O)[C@H]2CCCN2C(=O)CN(Cc2ccccc2)C(=O)[C@@H](CC(C)C)NC(=O)[C@H](C)NC(=O)[C@@H]2CCCN2C(=O)[C@H](Cc2ccccc2)NC1=O lists PAMPA -6.87 (log10 cm/s).
The entry for CC(C)C[C@@H]1NC(=O)C[C@H](Cc2ccccc2)NC(=O)[C@@H]2CCCN2C(=O)[C@H](Cc2ccccc2)NC(=O)[C@@H](CC(C)C)NC(=O)[C@@H]2CCCN2C(=O)C[C@H](Cc2ccccc2)NC1=O lists PAMPA -5.90 (log10 cm/s).
The entry for CC(C)C[C@@H]1NC(=O)[C@H]2CCCN2C(=O)CN(Cc2ccccc2)C(=O)[C@@H](CC(C)C)NC(=O)[C@H](C)NC(=O)[C@H](Cc2ccccc2)NC1=O lists PAMPA -6.34 (log10 cm/s).
The entry for CC(C)C[C@@H]1NC(=O)[C@H](C)N(C)C(=O)[C@H]2CCCN2C(=O)[C@H](Cc2ccccc2)NC(=O)CN(Cc2ccccc2)C(=O)[C@H]2CCCN2C(=O)C[C@H](Cc2ccccc2)NC1=O lists PAMPA -5.94 (log10 cm/s).
The entry for CC(C)C[C@@H]1NC(=O)[C@H]2CCCN2C(=O)CN(Cc2ccccc2)C(=O)[C@@H](CC(C)C)N(C)C(=O)[C@H](C)NC(=O)[C@@H]2CCCN2C(=O)[C@H](Cc2ccccc2)NC1=O lists PAMPA -6.11 (log10 cm/s).
The entry for CC(C)C[C@H]1NC(=O)[C@H](C)N(C)C(=O)[C@H]2CCCN2C(=O)[C@H](Cc2ccccc2)NC(=O)CN(Cc2ccccc2)C(=O)[C@H]2CCCN2C(=O)[C@H](CC(C)C)N(C)C1=O lists PAMPA -5.48 (log10 cm/s).
The entry for CC(C)C[C@@H]1C(=O)N(Cc2ccccc2)CC(=O)N2CCC[C@@H]2C(=O)N[C@H](CC(C)C)C(=O)N[C@@H](Cc2ccccc2)C(=O)N[C@H](C)C(=O)N1C lists PAMPA -5.20 (log10 cm/s).
The entry for CC(C)C[C@@H]1NC(=O)C[C@H](Cc2ccccc2)NC(=O)[C@H]2CCCN2C(=O)[C@H](Cc2ccccc2)NC(=O)[C@H](CC(C)C)NC(=O)[C@@H]2CCCN2C(=O)[C@@H](CC(C)C)NC1=O lists PAMPA -5.62 (log10 cm/s).
The entry for CC(C)C[C@@H]1C(=O)N[C@@H](Cc2ccccc2)CC(=O)N2CCC[C@H]2C(=O)N(C)[C@H](CC(C)C)C(=O)N[C@@H](Cc2ccccc2)C(=O)N2CCC[C@@H]2C(=O)N[C@@H](C)C(=O)N1C lists PAMPA -5.37 (log10 cm/s).
The entry for CC(C)C[C@H]1NC(=O)[C@@H](C)N(C)C(=O)[C@H]2CCCN2C(=O)[C@H](Cc2ccccc2)NC(=O)CN(Cc2ccccc2)C(=O)[C@@H]2CCCN2C(=O)C[C@H](Cc2ccccc2)NC1=O lists PAMPA -6.23 (log10 cm/s).

The 2 highest values of PAMPA among the entries above:

Listed for CC(C)C[C@@H]1NC(=O)[C@H](CC(C)C)N(C)C(=O)[C@@H](C)NC(=O)[C@H](Cc2ccccc2)NC(=O)[C@@H](CC(C)C)N(C)C(=O)[C@H]2CCCN2C1=O: PAMPA -4.88 (log10 cm/s).
Listed for CC(C)C[C@@H]1C(=O)N(Cc2ccccc2)CC(=O)N2CCC[C@@H]2C(=O)N[C@H](CC(C)C)C(=O)N[C@@H](Cc2ccccc2)C(=O)N[C@H](C)C(=O)N1C: PAMPA -5.20 (log10 cm/s).

Data: CycPeptMPDB; original report Townsend et al. 2020, doi:10.26434/chemrxiv.13335941.v1.